Bioassay records as filed in PubChem.
Hits are enriched below; roughly 2% of the tested compounds scored in any of these assays.
TDP-43 yeast inh = qHTS of TDP-43 Inhibitors | TDP-43 expressing yeast growth rescue, BacTiter-Glo, 24 h | Potency, µM (series often up to 46.1 µM), without a hit: at the highest dose growth rescue (activation), most hits filed as activators | 410,000 tested, 1.8% active | AID 652104, 2013; note: % of control where 0% means no effect; nearly all actives have a fitted effect of over 50% in size
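Yeast cells expressing TDP-43 under galactose induction are exposed to compounds for 24 hr at 30 deg C. BacTiter-Glo luminescence measures growth, so protective compounds score as activators.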
aSyn yeast inh = qHTS of alpha-syn Inhibitors. Yeast expressing alpha-synuclein, growth rescue, BacTiter-Glo, 24 h. Potency, µM (doses to about 46.1 µM), for inactives: at the highest dose growth rescue (activation), most hits filed as activators. 370,000 tested, 0.14% active; note: % of control where 0% means no effect; nearly all actives have a fitted effect of over 65% in size
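Galactose-induced alpha-syn yeast (OD600=0.02, raffinose-pregrown) + pinned cpd, 24 hr, 30 deg C; growth by BacTiter-Glo luminescence. Growth restoration scores as activation.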
S-ASM inh = Inhibitors of Secretory Acid Sphingomyelinase (S-ASM): qHTS; placental ASM, HMU-PC fluorogenic substrate, 60 min; Potency, µM (titrated, usually from 57.5 µM), for inactives: at the highest dose activity change, negative = inhibition, usual class: inhibitors; 340,000 tested, 0.006% active; AID 504937, 2011
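Fluorogenic HMU-PC substrate (9 uM final) is turned over by placental ASM in 60 min at 37 C after a 10 min compound preincubation. Reaction ended by alkaline stop (pH 10), with fluorescence read at 386/447 nm.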
Rango release inh = qHTS Assay for Inhibitors of RanGTP induced Rango (Ran-regulated importin-beta cargo) - Importin beta complex dissociation; Biochemical FRET Rango-importin beta, RanGTP-induced dissociation; Potency, µM (titrated, usually from 46.1 µM), without a hit: top-dose activity change, negative = inhibition; 340,000 tested, 0.071% active; AID 540253, 2011; calls by dose curve; note: % of control where 0% means no effect; nearly all actives have a fitted effect of over 45% in size
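Compounds preincubate 5 min with complex of recombinant Rango and importin beta in PBS with 1 mM DTT. Ran (0.6 uM) loaded with 2 mM GTP plus 0.2 uM RCC1 starts dissociation; FRET is recorded 45 min later.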
Abeta rescue = qHTS for compounds that reverse cellular toxicity of Amyloid beta (A-beta) peptide in yeast: Primary Screen; Potency, µM (highest dose often 46.1 µM), most hits filed as activators; yeast expressing A-beta42, growth rescue, OD600, 48 h; response scale: 0% DMSO, 100% iron-clioquinol control; 410,000 tested, 0.063% active; AID 1347071, 2019; note: nearly all actives have a fitted effect of over 55% in size
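Growth rescue measured by 600 nm absorbance after 48 h yeast culture at 30 C with compound. Values normalized between DMSO and an equimolar ferric chloride plus clioquinol control.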
Rango-impB inh = qHTS Assay for Inhibitors of Rango (Ran-regulated importin-beta cargo) - Importin beta complex formation. Importin subunit beta-1 (Homo sapiens), Q14974. Rango CFP/YFP FRET sensor + importin beta, 45 min. Potency, µM (top dose mostly 92.2 µM), inactives show top-dose inhibition of complex formation. 340,000 tested, 0.031% active. AID 540263, 2011; calls by dose curve;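 note: 0% = DMSO wells and 100% = buffer wells lacking importin beta; nearly all actives have a fitted effect of over 15% in size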
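Inhibition scored from the CFP 486 nm/YFP 530 nm FRET ratio 45 min after adding 0.125 microM importin beta to 50 nM Rango biosensor preincubated 5 min with compound (room temperature, PBS with DTT, Tween-20, BSA). No-importin wells as positive control.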
Numbers without * were called inactive; i = inactive; ? = inconclusive; · = no result given; [ ] = another dose, or the depositor's remark. Unless noted, calls come from the whole dose curve; as a rule, active = well fitted curve in the direction sought with a large enough effect; inconclusive = small, poorly fitted or top-dose-only effect, or another doubt; inactive = no such curve, though single readings can be large; an effect the other way counts as inactive or inconclusive. Potency is the fitted concentration of half-maximal effect.

entry	structure	TDP-43 yeast inh	aSyn yeast inh	S-ASM inh	Rango release inh	Abeta rescue	Rango-impB inh
1	Cn1c(=S)[nH]c2cc(C(=O)N3CCN(Cc4cccs4)CC3)ccc2c1=O	·	-1.2%	·	·	·	·
2	O=C(NCc1ccccc1F)c1sc2ncccc2c1-n1cccc1	20µM*	·	·	·	i	·
3	CCCCNC(=O)c1sc2ncccc2c1-n1cccc1	19.0%	·	·	·	i	·
4	O=C(NCCc1ccccc1)c1sc2ncccc2c1-n1cccc1	22.4µM*	·	·	·	i	·
5	CSc1ccc(CCNC(=O)c2sc3ncccc3c2-n2cccc2)cc1	?	·	·	·	i	·
6	CNCCN(C)c1nc(-c2cccs2)nc2ccccc12	·	-4.5%	·	·	·	·
7	CN(C)/C=C1\C=Cc2ccccc21	·	10.8%	·	·	·	·
8	C=CCc1cccc(/C=N/NC(=O)CNc2ccccc2OC)c1O	11.2µM*	8.6%	35.0%	-6.3%	i	-1.0%
9	CC1=C(C(=O)Nc2cc(Cl)ccc2C)C2(CCCCC2)OC1=O	35.5µM*	·	·	·	i	·
10	C=CCOc1ccc(C=CC(=O)c2c(O)c(OC)c(OC)c(OC)c2OC)cc1	22.4µM*	13.5%	-15.7%	0.4%	i	-1.6%
11	Cc1ccc(OCC(=O)Nc2ccc3nc(SCCOc4ccccc4)sc3c2)cc1	-12.3%	·	·	·	i	·
12	COC(=O)C(C)Oc1ccc2c(c1)O/C(=C\c1ccco1)C2=O (stereo not given)	-10.2%	0.0%	62.8%	20.6µM*	i	?
13	COc1ccc(S(=O)(=O)Nc2ccc3oc4c(c3c2)CCCC4)cc1	35.5µM*	·	·	·	i	·
14	O=S(=O)(Nc1cccc(-c2ccc(N3CCOCC3)nn2)c1)c1cc(Cl)ccc1Cl	-10.5%	0.7%	-27.8%	24.3%	i	-2.9%
15	O=S(=O)(Nc1ccc(N2CCOCC2)cc1)c1cc(Cl)ccc1Cl	14.1µM*	14.8%	-3.5%	19.2%	i	0.2%

Retrieved one by one from the list above, 3 records:
entry	structure	TDP-43 yeast inh	aSyn yeast inh	S-ASM inh	Rango release inh	Abeta rescue	Rango-impB inh
11	Cc1ccc(OCC(=O)Nc2ccc3nc(SCCOc4ccccc4)sc3c2)cc1	-12.3%	·	·	·	i	·
3	CCCCNC(=O)c1sc2ncccc2c1-n1cccc1	19.0%	·	·	·	i	·
7	CN(C)/C=C1\C=Cc2ccccc21	·	10.8%	·	·	·	·

Next entries:
entry	structure	TDP-43 yeast inh	aSyn yeast inh	S-ASM inh	Rango release inh	Abeta rescue	Rango-impB inh
16	COc1ccc(S(=O)(=O)Nc2ccc3oc(C)c(C(=O)O)c3c2)cc1	2.7%	4.5%	-3.3%	16.7%	?	0.4%
17	O=S(=O)(Nc1ccc2oc3c(c2c1)CCCC3)c1cc(Cl)ccc1Cl	35.5µM*	·	·	·	?	·
18	Cc1cc(NC(c2nnc(-c3ccccc3)o2)c2ccccc2F)ccc1Br (stereo not given)	20.4%	·	·	·	i	·
19	O=C(Cn1nc(C(F)(F)F)c2c1CCC2)Nc1ccc(Cl)cc1	23.2%	·	·	·	i	·
20	Cc1nn(C(=O)COc2ccc(Cl)cc2)c(C)c1Sc1ccccc1	-0.4%	·	·	·	i	·
21	Cc1nn(C(=O)CNS(=O)(=O)c2ccccc2)c(C)c1Sc1ccc(Cl)cc1	15.8µM*	-11.0%	22.5%	-6.0%	i	-0.2%
22	CCOC(=O)c1ccc(NC(=S)N2CCSC2c2ccc(Cl)cc2)cc1 (stereo not given)	15.8µM*	13.6%	-19.2%	13.9%	i	?
23	COc1ccc(/C=C/C(=O)c2c(O)c(OC)c3occc3c2OC)cc1OC	·	-6.2%	·	·	·	·
24	CCCCC(CC)CNC(=O)Cc1ccc(-n2c(=O)[nH]c3ccccc3c2=O)cc1 (stereo not given)	12.5%[9.22 µM]	·	·	·	i	·
25	COc1ccc(Nc2cccccc2=O)cc1	11.2µM*	8.3%	-15.0%	9.0%	i	1.4%
26	CCc1ccc(NC(=O)c2noc3c2CCC3)cc1	11.2µM*	-7.7%	-0.3%	3.2%	i	-3.1%
27	Cc1c(Cl)cccc1NC(=O)c1cc(-c2cccs2)on1	10.9%	·	·	·	i	·
28	O=C(CSc1ccc(-c2cccs2)nn1)Nc1cccc(F)c1	-10.7%	·	·	·	i	·
29	O=C(CCSc1nc(-c2ccco2)cc(C(F)(F)F)n1)NCC1CCCO1 (stereo not given)	6.7%	0.2%	-1.2%	25.9µM*	i	?
30	COc1ccc(CNC(=O)C2CCN(S(=O)(=O)Cc3ccccc3)CC2)cc1	10.8%	·	·	·	i	·

Continuation.
Labels used below: A = TDP-43 yeast inh; B = aSyn yeast inh; C = S-ASM inh; D = Rango release inh; E = Abeta rescue; F = Rango-impB inh
(31) Oc1c(N=Nc2nn[nH]n2)ccc2ccccc12
  A: 35.5µM* | B: -26.1% | C: · | D: · | E: i | F: ·

(32) O=[N+]([O-])c1ccccc1OCc1nc(-c2cccs2)no1
  A: 12.6µM* | B: 3.0% | C: -3.8% | D: -1.9% | E: i | F: -1.0%

(33) O=c1c2c(-c3ccc(Cl)cc3)csc2nc2n1CCC2
  A: 14.1µM* | B: -2.5% | C: -4.7% | D: -9.9% | E: i | F: 4.6%

(34) CCC1CCc2sc(C(=O)NCC(c3ccc(OC)cc3)N3CCCC3)cc2C1 (stereo not given)
  A: 3.3% | B: -0.2% | C: -0.2% | D: 29.9% | E: i | F: 58µM*

(35) CCC1CCc2sc(C(=O)O)cc2C1 (stereo not given)
  A: 14.1µM* | B: 17.8% | C: 2.5% | D: -15.0% | E: i | F: ?

(36) COc1ccc(C(CNC(=O)c2oc3ccc(Br)cc3c2C)N2CCCCC2)cc1 (stereo not given)
  A: -22.3% | B: -0.4% | C: -6.7% | D: 1.46µM* | E: i | F: -1.7%

(37) O=C(c1cccc(C(F)(F)F)c1)N1CCOc2ccccc21
  A: 14.1µM* | B: -0.6% | C: 4.0% | D: 0.7% | E: i | F: -0.8%

(38) COc1ccc2nc3c(cc2c1)c(NC(=O)c1cccs1)nn3CC(C)C
  A: 25.1µM* | B: 2.4% | C: 419.1% | D: ? | E: i | F: ?

(39) CCCCn1nc(NC(=O)CC)c2cc3cc(OC)ccc3nc21
  A: 11.2µM* | B: -0.4% | C: 297.0% | D: ? | E: i | F: ?

(40) Cc1cc(Cl)nc2nc(Cl)ccc12
  A: · | B: -4.0% | C: · | D: · | E: · | F: ·

(41) Cc1ccc2c(=O)cc(C(=O)Nc3nc4ccc(Cl)cc4s3)oc2c1C
  A: 6.0% | B: · | C: · | D: · | E: i | F: ·

(42) Cc1cc(=O)[nH]c(-n2nc(C)cc2C)n1
  A: ? | B: 28.2µM* | C: 3.4% | D: -14.4% | E: ? | F: -8.1%

(43) CCOC(=O)c1cnc(-n2nc(C)cc2C)[nH]c1=O
  A: ? | B: 22.4µM* | C: 0.8% | D: -1.9% | E: ? | F: -0.1%

(44) CC1CCCN(c2ncnc3c2nc2n3CCCCC2)C1 (stereo not given)
  A: ? | B: · | C: · | D: · | E: i | F: ·

(45) CSc1ccc(/C=C/C(=O)OCC(=O)NC2CCCC2)cc1
  A: 20µM* | B: -1.4% | C: · | D: · | E: i | F: ·

Molecules shown so far that contain bromine (2):
Labels used below: A = TDP-43 yeast inh; B = aSyn yeast inh; C = S-ASM inh; D = Rango release inh; E = Abeta rescue; F = Rango-impB inh
(18) Cc1cc(NC(c2nnc(-c3ccccc3)o2)c2ccccc2F)ccc1Br (stereo not given)
  A: 20.4% | B: · | C: · | D: · | E: i | F: ·

(36) COc1ccc(C(CNC(=O)c2oc3ccc(Br)cc3c2C)N2CCCCC2)cc1 (stereo not given)
  A: -22.3% | B: -0.4% | C: -6.7% | D: 1.46µM* | E: i | F: -1.7%

The list continues.
Labels used below: A = TDP-43 yeast inh; B = aSyn yeast inh; C = S-ASM inh; D = Rango release inh; E = Abeta rescue; F = Rango-impB inh
(46) O=C(COC(=O)/C=C/c1ccc(Cl)c(Cl)c1)NC1CC1
  A: 10µM* | B: 24.0% | C: 1.0% | D: -0.2% | E: i | F: 2.0%

(47) O=C1c2ccccc2NC(c2ccc(-c3ccc(Br)cc3)o2)N1O (stereo not given)
  A: -39.1% | B: 22.4µM* | C: -12.7% | D: -11.9% | E: i | F: 3.7%

(48) COc1cc2c(NC3CCN(C)CC3)nc(N3CCCN(C)CC3)nc2cc1OCCCN1CCCCC1
  A: · | B: 4.1% | C: · | D: · | E: · | F: ·

(49) Cc1cccc(NC(=O)Cn2c(=O)n(Cc3ccc4c(c3)OCO4)c(=O)c3ccccc32)c1
  A: 18.1% | B: · | C: · | D: · | E: i | F: ·
